Reference: US20120129892A1, “NOVEL PHARMACEUTICALLY ACCEPTABLE SALTS OF 4-(1H-IMIDAZOL-4-[…])PYRIDINE AND THEIR THERAPEUTICAL USES” (BIOPROJET, priority 2009, published 2012)

Amino acid sequences for entries named in this document (tags omitted). A change or cut given only in a name is not applied to a line headed by its entry.
UniProt P58406: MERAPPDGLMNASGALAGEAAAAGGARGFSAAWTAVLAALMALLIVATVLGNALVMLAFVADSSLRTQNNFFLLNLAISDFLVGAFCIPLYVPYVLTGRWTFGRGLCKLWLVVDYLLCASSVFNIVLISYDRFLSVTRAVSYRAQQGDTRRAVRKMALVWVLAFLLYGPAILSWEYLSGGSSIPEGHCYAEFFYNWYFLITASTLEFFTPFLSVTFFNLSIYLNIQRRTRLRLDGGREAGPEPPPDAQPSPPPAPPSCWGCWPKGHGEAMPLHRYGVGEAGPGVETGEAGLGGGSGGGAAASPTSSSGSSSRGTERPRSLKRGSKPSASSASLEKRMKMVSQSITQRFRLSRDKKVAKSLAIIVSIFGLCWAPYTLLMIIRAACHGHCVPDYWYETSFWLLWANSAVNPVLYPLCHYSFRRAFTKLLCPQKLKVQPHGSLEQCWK

Target: H3R in brain (Mus musculus, UniProt P58406)
Conditions: mice, oral; immethridine base and salts at 0.3 mg/kg; imetit: maximal reduction

## N=C(N)SCCc1cnc[nH]1 [imetit, reference compound]
  t-methylhistamine brain level variation vs. control, mean (%): −35.9%
